In PubChem BioAssay AID528 (NMMLSC, 2006):
Only a part is listed here, and it is no random draw. Some of these compounds have results that are not shown, active ones among them. Records with an inconclusive call do not appear. Active and inactive are the calls of the source.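 How the source made its calls: active means fluorescent ligand binding to cells raised by more than 40% of the manganese-induced maximum; inconclusive means compound's own fluorescence above 85% of the ligand control signal; inactive means the rest.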

Chains of the proteins cited; added tags and fusions are not shown.
UniProt P13612, whole entry, looked up: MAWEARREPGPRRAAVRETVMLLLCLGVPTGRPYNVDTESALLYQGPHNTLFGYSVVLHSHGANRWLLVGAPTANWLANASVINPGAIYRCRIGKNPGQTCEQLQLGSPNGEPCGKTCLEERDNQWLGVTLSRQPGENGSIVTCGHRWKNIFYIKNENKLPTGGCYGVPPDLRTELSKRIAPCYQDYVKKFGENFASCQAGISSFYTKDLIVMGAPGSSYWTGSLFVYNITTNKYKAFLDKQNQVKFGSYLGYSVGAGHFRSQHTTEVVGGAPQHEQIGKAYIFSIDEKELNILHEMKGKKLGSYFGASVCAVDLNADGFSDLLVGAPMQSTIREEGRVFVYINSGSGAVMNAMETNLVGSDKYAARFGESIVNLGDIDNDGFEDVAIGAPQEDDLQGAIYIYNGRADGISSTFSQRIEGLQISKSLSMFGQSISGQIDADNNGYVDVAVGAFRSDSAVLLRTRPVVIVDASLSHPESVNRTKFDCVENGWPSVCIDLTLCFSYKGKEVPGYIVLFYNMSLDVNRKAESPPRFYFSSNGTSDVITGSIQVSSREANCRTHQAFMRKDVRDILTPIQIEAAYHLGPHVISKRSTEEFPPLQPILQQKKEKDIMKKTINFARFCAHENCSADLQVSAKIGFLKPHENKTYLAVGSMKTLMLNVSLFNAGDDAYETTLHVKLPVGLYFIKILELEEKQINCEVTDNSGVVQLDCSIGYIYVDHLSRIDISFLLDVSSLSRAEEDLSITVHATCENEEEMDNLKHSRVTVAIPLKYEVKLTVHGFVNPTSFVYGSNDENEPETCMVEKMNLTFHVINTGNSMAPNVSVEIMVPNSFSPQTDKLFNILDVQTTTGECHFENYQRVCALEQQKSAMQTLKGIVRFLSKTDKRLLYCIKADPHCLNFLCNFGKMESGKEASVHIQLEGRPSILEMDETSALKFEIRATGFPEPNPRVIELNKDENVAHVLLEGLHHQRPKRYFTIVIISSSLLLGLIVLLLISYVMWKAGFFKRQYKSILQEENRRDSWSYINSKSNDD

Each compound was assayed against Integrin alpha-4 (Homo sapiens) (UniProt P13612) (assay: enhancers of LDV-FITC binding to VLA-4 integrin, primary screen, Jurkat cells, flow cytometry (AID 528;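 further: 0% = ligand binding without compound and 100% = manganese-stimulated maximal binding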)). Settings: stronger effect = higher value, screened at 10 µM (by protocol).
With `O=C(OC1CN2CCC1CC2)C(CO)(c1ccccc1)c1ccccc1` (stereo unspecified) the activation was inactive: 4%.
